Patent publication US20160115247A1, “SINGLE DOMAIN ANTIBODIES DIRECTED AGAINST INTRACELLULAR ANTIGENS” (SINGH BIOTECHNOLOGY, LLC, priority 2014, published 2016)

Test system: U937 cells
Assay: Cytotoxicity in U937 cells, Cell Titer-Glo luminescent viability
Format: cell-based, human
Settings: 24 hours of culture; ATP quantitation
Description: The concentration of TNF-alpha required to show measurable modulation of activity in the U937 human lung lymphoblast cell line was evaluated by quantitation of the ATP present, which signals the presence of metabolically active cells using Promega's Cell Titer-GJo® Luminescent Cell Viability assay.
The U937 cells were seeded in a clear polystyrene 96-well microculture plate (Corning® Costar® 96-well flat bottom plate, Cat. #3997) in a total volume of 90 μL/well. After 24 hours of incubation in a humidified incubator at 37° C. with 5% CO2 and 95% air, 5 μL of 20×, serially diluted TNF-alpha in growth medium was added to each well in duplicate (10 pt dose response, highest concentration 20 ng/mL). Additionally, 5 μL of 20×, diluted staurosporine in growth medium was added to each well in duplicate (concentration 1 nM).
After 24 hours of culture in the presence of test agents, the concentration of compound required to show measurable modulation of TNF-alpha activity in the U937 cell line as evaluated by quantitation of the ATP present. Percent cell growth was calculated relative to untreated control wells. All tests were performed in duplicate at each concentration level.
The EC50 value for the test agents was estimated using Prism 6.05 by curve-fitting the data using the following four parameter-logistic equation: […]

TNF-alpha: proinflammatory cytokine, test agent cytotoxic to U937 cells
IC50 against U937: 0.0951 ng/mL
